Target: T1, Glucocorticoid receptor (Homo sapiens, UniProt P04150)
T1 sequence (P04150 whole entry): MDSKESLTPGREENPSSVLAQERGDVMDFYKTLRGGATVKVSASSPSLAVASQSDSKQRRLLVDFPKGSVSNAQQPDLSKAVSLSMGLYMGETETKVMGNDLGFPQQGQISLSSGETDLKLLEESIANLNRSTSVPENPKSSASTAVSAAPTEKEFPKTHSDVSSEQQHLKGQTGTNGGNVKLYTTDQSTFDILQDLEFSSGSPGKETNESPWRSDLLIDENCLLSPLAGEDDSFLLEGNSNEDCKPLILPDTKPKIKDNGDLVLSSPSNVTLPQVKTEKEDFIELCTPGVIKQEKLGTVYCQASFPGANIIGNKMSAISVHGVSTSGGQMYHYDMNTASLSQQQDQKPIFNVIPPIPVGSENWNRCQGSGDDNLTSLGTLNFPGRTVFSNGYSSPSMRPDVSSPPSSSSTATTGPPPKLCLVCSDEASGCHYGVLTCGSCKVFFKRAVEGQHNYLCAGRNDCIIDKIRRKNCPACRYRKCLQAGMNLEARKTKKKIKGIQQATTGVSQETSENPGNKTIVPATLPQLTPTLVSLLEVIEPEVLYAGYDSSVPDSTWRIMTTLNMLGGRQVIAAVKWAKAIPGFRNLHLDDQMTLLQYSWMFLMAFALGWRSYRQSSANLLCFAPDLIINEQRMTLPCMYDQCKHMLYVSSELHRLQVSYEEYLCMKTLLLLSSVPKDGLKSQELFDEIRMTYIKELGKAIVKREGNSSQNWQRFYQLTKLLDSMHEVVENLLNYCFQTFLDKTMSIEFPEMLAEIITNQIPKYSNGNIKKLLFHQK
Assay: Transcriptional repression in HepG2 cells expressing human glucocorticoid receptor
Type: functional, cell-based

EC50 | SMILES
5 nM | C=CCC1Oc2c(Br)cc(O)c(Cl)c2-c2ccc3c(c21)C(C)=CC(C)(C)N3 (configuration not stated)
81 nM | C=CCC1Oc2ccc(F)c(OC)c2-c2ccc3c(c21)C(C)=CC(C)(C)N3 (configuration not stated)
